Bioassay records (PubChem)
Sampled rows, rich in hits. Any-hit rate of the full collection: about 2.1%.
Nrf2 ARE act = Nrf2 pathway activation; Potency, µM (top dose mostly 46.1 µM), without a hit: top-dose activation, most hits filed as activators; AREc32 ARE-luciferase reporter (MCF7-derived line), luminescence, 24 h; AID 624171; actives 0.31% (n = 410,000); note: potency is the fitted concentration of half-maximal effect; % of control where 0% means no effect; nearly all actives have a fitted effect of over 65% in size
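Cells of the AREc32 ARE-luciferase line are plated in OPTI-MEM containing 5% FBS and left overnight at 37 deg C. Compounds are pinned in, incubation continues 24 hr, and firefly luciferase signal is then measured.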
Nrf2 block = blocks Nrf2 signaling. A549 ARE-Fluc reporter, luciferase luminescence, 18-24 h. Potency, µM (series often up to 46 µM), for inactives: top-dose activity change, negative = inhibition, most hits filed as inhibitors. AID 504444. actives 2.1% (n = 360,000); note: potency is the fitted concentration of half-maximal effect; % is set by controls: 0 for no effect and ±100 for the full control effect; nearly all actives have a fitted effect of over 60% in size
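Two sequential reads on A549 ARE_Fluc cells exposed to compound for 18-24 h: a CellTiter-Fluor fluorescence read for viability, then a luciferase luminescence read for Nrf2/ARE activity.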
PTAP TSG101 blk = blocks PTAP/TSG101 interaction to inhibit HIV-1 budding | Q99816 | Fluorescence polarization, FITC-PTAP peptide / Tsg101 binding | Potency, µM (titrated, usually from 115 µM), inactives show at the top dose activity change, negative = inhibition, actives largely listed as inhibitors | 340,000 tested, under 10 active; active = well fitted inhibition curve with a large enough effect in the main read-out, with a control signal flat, not every such curve was filed as active; inconclusive = small, poorly fitted or top-dose-only effect, or effect the other way, or a change in a side signal; inactive = no such curve, though single readings can be large or run the other way; note: potency is the fitted concentration of half-maximal effect; % of control where 0% means no effect
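Tsg101 binding domain (10 uM final) was mixed with compound and a FITC-labeled PTAP peptide (50 nM final) in HEPES pH 7.5 buffer with NaCl, Tween 20, EDTA and TCEP; fluorescence polarization was read after 20 min at r.t.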
Glioma ERSR ind = induces the endoplasmic reticulum stress response in human glioma cells. actives 0.02% (n = 420,000). Potency, µM, inactives show at the highest dose activation, usual class: activators. U87-MG GRP78 promoter luciferase reporter, 16 h; note: potency is the fitted concentration of half-maximal effect; series mostly up to about 76 µM; % of control where 0% means no effect; nearly all actives have a fitted effect of over 35% in size
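ERSR induction read as luciferase luminescence (Bright-Glo, 10 min at room temperature) in stably transfected human U87-MG glioma cells exposed to compounds for 16 h, using GRP78 as sensor.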
miR-21 FLuc = miR-21 reporter, rising signal; Potency, µM (doses to about 38.3 µM), without a hit: at the top dose reporter change, positive = more light; HeLa miR-21 FLuc reporter, luciferase, 48 h; 340,000 tested, under 10 active; active = well fitted rising curve with a large enough effect; inconclusive = small, poorly fitted or top-dose-only effect; inactive = no such curve, though single readings can be large or run the other way;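 further: % of control where 0% means no effect; miR-21 action dims this reporter so a rising signal means less miR-21 action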
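HeLa cells stably expressing CMV-driven firefly luciferase with a downstream miR-21 binding sequence, endogenously expressing miR-21, were treated with titrations (up to about 40uM final) for 48 hours at 37 degree Celsius. Luciferase luminescence was read after lysis.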
A549 viability = A549 cytotoxicity, counter-screen for Nrf2 inhibitors | Potency, µM (top dose mostly 46 µM), for inactives: at the highest dose activity change, negative = cytotoxicity, hits mostly inhibitors | actives 0.16% (n = 390,000) | A549 ARE-Fluc cells, CellTiter-Fluor viability, 18-24 h | AID 504648; note: potency is the fitted concentration of half-maximal effect; % is set by controls: 0 for no effect and ±100 for the full control effect
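A549 ARE_Fluc cells in 5% FBS OPTI-MEM were exposed to compounds in concentration-response for 18-24 h at 37 deg C. Viability was read by CellTiter-Fluor fluorescence (Ex 405/Em 525) after 30 min, before the luciferase read.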
Starred values were filed as active, the others as inactive; ? = inconclusive; · = no result given. Unless noted, calls come from the whole dose curve; as a rule, active = well fitted curve in the direction sought with a large enough effect; inconclusive = small, poorly fitted or top-dose-only effect, or another doubt; inactive = no such curve, though single readings can be large; an effect the other way counts as inactive or inconclusive.

Each structure is followed by: Nrf2 block, A549 viability, miR-21 FLuc, PTAP TSG101 blk, Glioma ERSR ind, Nrf2 ARE act
1. Cc1ccc(O)c(NC(=O)c2onc(C)c2Cl)c1
    4%, 5%, -42%, 0%, 4%, 8.9µM*
2. Cc1noc(C(=O)Nc2ccc(F)cc2F)c1Cl
    ?, 1%, -24%, -1%, -4%, 8%
3. O=[N+]([O-])c1cccnc1N1CCC(c2cc(-c3ccc(Cl)cc3Cl)n[nH]2)CC1
    18µM*, ?, 9%, 1%, -4%, -1%
4. O=[N+]([O-])c1cccnc1N1CCC(c2cc(-c3cccc(C(F)(F)F)c3)n[nH]2)CC1
    21µM*, ?, 18%, -12%, -13%, -1%
5. COc1ccc(OC)c(-c2cc(C3CCN(c4ncccc4[N+](=O)[O-])CC3)[nH]n2)c1
    ?, ?, -11%, -11%, -8%, 0%
6. CC(=O)c1ccc(N2CCC(c3cc(-c4ccc(Cl)cc4Cl)n[nH]3)CC2)c([N+](=O)[O-])c1
    16µM*, ?, 11%, -1%, -7%, -1%
7. Cc1nc(NCc2c(F)cccc2F)sc1-c1ccn(CCN2CCOCC2)n1
    ·, ·, ·, ·, -2%, ·
8. O=C(COc1ccccc1F)Nc1ccc2nc(SCC(=O)N3CCOCC3)sc2c1
    18µM*, -13%, ?, ·, -5%, 2%
9. Cc1cccc(OCCSc2nc3ccc(NC(=O)c4cccs4)cc3s2)c1
    23µM*, 1%, ?, ·, -3%, 1%
10. Cc1cccc(C(=O)Nc2ccc3nc(SCC(=O)N4CCCC4)sc3c2)c1
    18µM*, -19%, 11%, ·, -4%, 6%
11. CC(C)c1nc(C(=O)N2CCOc3ccc(CN4CCN(c5ccccn5)CC4)cc3C2)cs1
    ·, ·, ·, ·, 0%, ·
12. COC(=O)c1c(OCc2ccccc2)cc(=O)n2c1CCN(Cc1cccc(C)n1)CC2
    ·, ·, ·, ·, -1%, ·
13. Cc1ccc(NC(=O)c2sc3nc4c(c(-c5ccco5)c3c2N)CCC4)cc1
    18µM*, -12%, -14%, ?, -12%, 0%
14. Nc1c(C(=O)Nc2ccc(Br)cc2)sc2nc(-c3ccco3)ccc12
    13µM*, ?, 0%, 4%, 12%, ?
15. Cc1csc[n+]1CC(=O)c1ccccc1
    ·, ·, ·, ·, 2%, ·
16. COC(=O)C1CCN(Cc2ccc3c(c2)CN(C(=O)c2ccc(-n4cnnn4)cc2)CCO3)CC1
    ·, ·, ·, ·, -5%, ·
17. Cc1cc2nc(SCCOC(=O)Nc3ccccc3)nc(C)c2cc1C
    21µM*, -11%, -5%, 0%, 1%, 0%
18. COc1ccc(NC(=O)/C=C/c2ccc(OC(F)F)cc2)cn1
    18µM*, -18%, 18%, 0%, 2%, 4%
19. COc1ccc(NC(=O)/C=C/c2cccc(Br)c2)cn1
    16µM*, -17%, -1%, -26%, -1%, 6%
20. COc1ccc(NC(=O)/C=C/c2cccc(C(F)(F)F)c2)cn1
    ?, -7%, 27%, -6%, -1%, ?
21. O=C1NC(=S)S/C1=C\c1ccc(SCc2ccco2)o1
    -10%, ?, -4%, 17%, -3%, 14%
22. O=C1NC(=S)S/C1=C\c1ccc(SCc2ccccc2)o1
    21µM*, ?, 5%, 2%, 3%, 25%
23. O=C(CSc1nnc(-c2ccco2)c(-c2ccco2)n1)Nc1ccccc1
    -18%, -12%, -10%, 2%, -5%, 13µM*
24. CSc1nnc(-c2ccccc2)c(-c2ccccc2)n1
    1%, -1%, -9%, -6%, -5%, 0%
25. CSc1nnc(-c2ccco2)c(-c2ccco2)n1
    -2%, -10%, 1%, -5%, -3%, 7.9µM*
26. Cc1ccc(NC(=O)CSc2nnc(-c3ccco3)c(-c3ccco3)n2)cc1
    ?, ?, 10%, -11%, -4%, ?
27. Nc1nc2ccccc2cc1-c1cccs1
    ?, 0%, -56%, -3%, 8%, 4%
28. c1csc(-c2ccc3ccccc3n2)c1
    ?, 0%, -44%, -2%, 4%, 18µM*
29. Cn1nc(C(C)(C)C)cc1C(=O)O
    3%, 1%, 2%, -6%, -1%, 1%
30. Cn1nc(C(C)(C)C)cc1C(=O)NNC(=O)c1ccc(C(F)(F)F)cc1
    21µM*, 13%, 10%, -1%, -5%, 2%

Just Glioma ERSR ind, A549 viability and Nrf2 block, for five of the compounds above:
cpd | SMILES | Glioma ERSR ind | A549 viability | Nrf2 block
7 | Cc1nc(NCc2c(F)cccc2F)sc1-c1ccn(CCN2CCOCC2)n1 | -2% | · | ·
8 | O=C(COc1ccccc1F)Nc1ccc2nc(SCC(=O)N3CCOCC3)sc2c1 | -5% | -13% | 18µM*
9 | Cc1cccc(OCCSc2nc3ccc(NC(=O)c4cccs4)cc3s2)c1 | -3% | 1% | 23µM*
10 | Cc1cccc(C(=O)Nc2ccc3nc(SCC(=O)N4CCCC4)sc3c2)c1 | -4% | -19% | 18µM*
11 | CC(C)c1nc(C(=O)N2CCOc3ccc(CN4CCN(c5ccccn5)CC4)cc3C2)cs1 | 0% | · | ·

Results in sequence from the entries so far:
Entries 16 to 20 in Nrf2 ARE act: ·, 0%, 4%, 6%, ?
Entries 16 to 20 in Nrf2 block: ·, 21µM*, 18µM*, 16µM*, ?
Entries 16 to 20 in PTAP TSG101 blk: ·, 0%, 0%, -26%, -6%

The list goes on:
Each structure is followed by: Nrf2 block, A549 viability, miR-21 FLuc, PTAP TSG101 blk, Glioma ERSR ind, Nrf2 ARE act
31. COc1ccc(C2Nc3ccccc3C(=O)N2Cc2ccccc2)cc1COc1ccccc1OC (stereo not given)
    -27%, 2%, ·, ·, ·, ·
32. O=S(=O)(Nc1cccc2cccnc12)c1ccc(Br)cc1
    8.2µM*, ?, ·, ·, ·, ·
33. O=S(=O)(Nc1cccc2ccccc12)c1cccs1
    6%, -1%, -21%, 0%, 3%, 0%
34. O=S(=O)(Nc1cccc2cccnc12)c1cccs1
    18µM*, ?, ·, ·, -11%, ·
35. O=S(=O)(Nc1cccc2cccnc12)c1ccc2ccccc2c1
    5.2µM*, -10%, ·, ·, ?, ·
36. COc1ccc(S(=O)(=O)Nc2cccc3cccnc23)c([N+](=O)[O-])c1
    7.3µM*, ?, ·, ·, ?, ·
37. Nc1ccc(S(=O)(=O)Nc2cccc3cccnc23)cc1
    11%, 3%, ·, ·, ·, ·
38. CN(C)c1nc2cc3c(cc2cc1CN(CC1CCCO1)C(=O)c1cccc(F)c1)OCO3 (stereo not given)
    ·, ·, ·, ·, -2%, ·
39. CCCCN(CCCC)S(=O)(=O)c1ccc(C(=O)Nc2sc3c(c2C(N)=O)CCN(CC)C3)cc1
    ·, -3%, 6%, ·, -7%, 6%
40. CCN1CCc2c(sc(NC(=O)c3ccc(S(=O)(=O)N(CC)c4ccccc4)cc3)c2C(N)=O)C1
    16µM*, 23µM*, 3%, ?, -11%, 12%
41. CSc1nccc(-c2cc(Cl)c3c(c2)CC(CNC(=O)c2ccc(C)nc2)O3)n1 (stereo not given)
    ·, ·, ·, ·, 2%, ·
42. O=c1cc(-c2cccc(Br)c2)oc2cccc(O)c12
    23%, -1%, -3%, 0%, 1%, 2µM*
43. COc1cccc(C(=O)N2CCCC(c3nc(SCCN4CCOCC4)ncc3C)C2)c1 (stereo not given)
    ·, ·, ·, ·, -5%, ·
44. Cc1cc(NC(=O)C(Cl)c2ccccc2)no1 (stereo not given)
    ?, -4%, 7%, 0%, 0%, 13µM*
45. CCCCCCC#Cc1cncc(C(=O)NNC(=O)Nc2cc(Cl)cc(Cl)c2)c1
    -22%, -3%, -4%, 1%, 11%, 3%
46. CCCCC#Cc1cncc(C(=O)NN)c1
    18µM*, 3%, -2%, -1%, -1%, 0%
47. CC(=O)N1c2ccc(S(=O)(=O)NCCc3cccc(C)c3)cc2CC1C (stereo not given)
    13µM*, -1%, 9%, ·, -1%, 4%
48. CCC(=O)N1c2ccc(S(=O)(=O)NCCc3ccc(OC)c(OC)c3)cc2CC1C (stereo not given)
    ?, 2%, 0%, 0%, -3%, 0%
